Measured values as given in patent US9072759B2 (priority 2008, dated 2015).
Marks after values point to notes of the source that are not given here.

Key:
[1] = tested on: S. pneumoniae (ATCC 49619)
[2] = tested on: Coagulase-neg. staphylococci (5)
[3] = tested on: β-haemolytic streptococci (5)
[4] = tested on: Viridans group streptococci (5)

CC[C@H]1OC(=O)[C@H](C)[C@@H](O[C@H]2C[C@@](C)(OC)[C@@H](O)[C@H](C)O2)[C@H](C)[C@@H](O[C@@H]2O[C@H](C)C[C@H](N(C)C)[C@H]2O)[C@](C)(O)C[C@@H](C)CN(C)[C@H](C)[C@@H](O)[C@]1(C)O [AZI, Azithromycin, reference compound]
Antimicrobial activity (time kill curve) [1]: Cidal at 2X, 4X, 8X (slow killing)

CC[C@H]1OC(=O)[C@H](C)[C@@H](O[C@H]2C[C@@](C)(OC)[C@@H](O)[C@H](C)O2)[C@H](C)[C@@H](O[C@@H]2O[C@H](C)C[C@H](N(C)C)[C@H]2O)[C@](C)(OC)C[C@@H](C)C(=O)[C@H](C)[C@@H](O)[C@]1(C)O [CLR, Clarithromycin]
No. of strains with MBC/MIC value of: ≧32 [2]: 4^b
Antimicrobial activity (time kill curve) [1]: Cidal at 2X, 4X, 8X (slow killing)
No. of strains with MBC/MIC value of: ≧32 (Enterococcus spp. (5)): 2^b
No. of strains with MBC/MIC value of: ≧32 (S. aureus (10)): 6^b
No. of strains with MBC/MIC value of: ≧32 [3]: 2^b
No. of strains with MBC/MIC value of: ≧32 [4]: 3^b

CC[C@H]1OC(=O)[C@H](C)C(=O)[C@H](C)[C@@H](O[C@@H]2O[C@H](C)C[C@H](N(C)C)[C@H]2O)[C@](C)(OC)C[C@@H](C)C(=O)[C@H](C)[C@H]2N(CCCCn3cnc(-c4cccnc4)c3)C(=O)O[C@]12C [TEL, Telithromycin]
Antimicrobial activity (time kill curve) [1]: Cidal at 2X, 4X, 8X

CC[C@H]1OC(=O)[C@@](C)(F)C(=O)[C@H](C)[C@@H](OC2OC(C)CC(N(C)C)C2O)[C@@](C)(OC)C[C@@H](C)C(=O)[C@H](C)[C@H]2N(CCCCn3cc(-c4cccc(N)c4)nn3)C(=O)O[C@]12C (stereo partly drawn) [CEM-101, 11-N-4-(3-aminophenyl)-[1,2,3]triazol-1-yl]-butyl}-5-desosaminyl-3-oxo-2-fluoro-erythronolide A,-11,12-cyclic carbamate]
Antimicrobial activity (time kill curve) [1]: Cidal at 2X, 4X, 8X
